# Hits are enriched below; roughly 2.2% of the tested compounds scored in any of these assays.
# miR-21 FLuc – miR-21 reporter, rising signal | AID 2288 | HeLa miR-21 FLuc reporter, luciferase, 48 h | 340,000 tested, under 10 active | Potency, µM (titrated, usually from 38.3 µM), for the others: at the top dose reporter change, positive = more light; active = well fitted rising curve with a large enough effect; inconclusive = small, poorly fitted or top-dose-only effect; inactive = no such curve, though single readings can be large or run the other way;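 also: % of control where 0% means no effect; miR-21 action dims this reporter so a rising signal means less miR-21 action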
#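 Using DMEM plus 10% FBS, HeLa miR-21-FLuc cells are incubated with test compounds (final up to about 40uM) for 48 hours; firefly luciferase signal is then imaged following reagent-mediated lysis.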
# B2AR arrestin – agonists driving beta-arrestin recruitment to human beta2-adrenergic receptor. P07550. beta-arrestin recruitment to beta2AR, cell-based reporter. Potency, µM (series often up to 46.1 µM), inactives show top-dose activation, hits mostly activators. 0.02% of 330,000 active;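 further: potency means the concentration at half of the fitted maximal effect; 0% = DMSO controls and full agonism = EC100 isoproterenol or metaproterenol; nearly all actives have a fitted effect of over 65% in size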
# Nrf2 ARE act – activators of Nrf2 (ARE) signaling; AREc32 ARE-luciferase reporter (MCF7-derived line), luminescence, 24 h; Potency, µM (highest dose often 46.1 µM), for the others: top-dose activation, actives largely listed as activators; 0.31% of 410,000 active; further: potency means the concentration at half of the fitted maximal effect; % of control where 0% means no effect; nearly all actives have a fitted effect of over 65% in size
#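 Reporter line AREc32 (ARE-Fluc), seeded overnight in OPTI-MEM with 5% FBS; compound pin-transferred, 24 hr at 37 deg C, 5% CO2; luminescent read-out.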
# A549 tox – kills or reduces viability of A549 cells in Nrf2 counter-screen; Potency, µM (titrated, usually from 46 µM), for inactives: at the highest dose activity change, negative = cytotoxicity, usual class: inhibitors; 0.16% of 390,000 active; A549 ARE-Fluc cells, CellTiter-Fluor viability, 18-24 h; further: potency means the concentration at half of the fitted maximal effect; on the % scale 0 is the no-effect control and ±100 the full control effect
#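 A549 ARE-Fluc cells in 5% FBS OPTI-MEM, 5000 cells/well, rested 2 h then exposed to compounds in concentration-response for 18-24 h at 37 °C. Viability by CellTiter-Fluor fluorescence (Ex 405/Em 525) after 30 min; luciferase luminescence (BugLite, 15 min, RT) read afterwards.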
# Nrf2 inh – blocks Nrf2 signaling; A549 ARE-Fluc reporter, luciferase luminescence, 18-24 h; Potency, µM (doses to about 46 µM), without a hit: at the top dose activity change, negative = inhibition, usual class: inhibitors; 2.1% of 360,000 active; AID 504444; further: potency means the concentration at half of the fitted maximal effect; on the % scale 0 is the no-effect control and ±100 the full control effect; nearly all actives have a fitted effect of over 60% in size
#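 In this cell-based qHTS, ARE-driven firefly luciferase in A549 cells reports Nrf2 activity; the luminescent signal after BugLite lysis is the measured value, with a prior CellTiter-Fluor read for cell health.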
# An asterisk follows results filed as active; ? = inconclusive; · = not tested or not shown. Unless noted, the call rests on the fitted dose curve; in most records, active means well fitted curve in the direction sought with a large enough effect; inconclusive means small, poorly fitted or top-dose-only effect, or another doubt; inactive means no such curve, though single readings can be large; an effect the other way counts as inactive or inconclusive.
# Abbreviations – A = miR-21 FLuc; B = B2AR arrestin; C = Nrf2 ARE act; D = A549 tox; E = Nrf2 inh
> O=C(/C=C\c1ccccc1[N+](=O)[O-])Nc1ccccc1
  A = -49% | B = 0% | C = 11µM* | D = -1% | E = ?
> NS(=O)(=O)c1ccc(NC(=O)/C=C/c2ccccc2[N+](=O)[O-])cc1
  A = 1% | B = 0% | C = ? | D = -3% | E = -16%
> Cc1ccc(C(=O)/C=C/c2ccccc2[N+](=O)[O-])cc1
  A = -20% | B = 0% | C = 1% | D = 3% | E = ?
> O=C(/C=C/c1ccccc1[N+](=O)[O-])c1ccccc1Br
  A = 29% | B = -1% | C = -4% | D = ? | E = 16µM*
> CCOC(=O)c1ccccc1NC(=O)CSc1nccn1Cc1ccco1
  A = -1% | B = · | C = 1% | D = 16% | E = ·
> Cc1ccc(C(NC(=O)NC(C)c2ccccc2)C(Cl)(Cl)Cl)cc1F (stereo unspecified)
  A = ? | B = 5% | C = 1% | D = ? | E = 16µM*
> CC(NC(=O)Nc1ccc(Cl)cc1)c1ccccc1 (stereo unspecified)
  A = 11% | B = 0% | C = 1% | D = -7% | E = -22%
> Cc1cc2c(s1)c1cnn(Cc3cccc(C)c3F)c(=O)c1n2C
  A = · | B = · | C = · | D = 2% | E = 5%
> Cc1ccccc1-n1c(SCC(=O)N/N=C/c2c(C)nn(-c3ccccc3)c2C)nc2ccccc2c1=O
  A = -2% | B = 0% | C = 2% | D = ? | E = ?
> Cc1ccc(-n2c(SCC(=O)N/N=C/c3c(C)nn(-c4ccccc4)c3C)nc3ccccc3c2=O)cc1
  A = -7% | B = 0% | C = 1% | D = 8.2µM* | E = ?

# Overlap with the part before: 2 compounds, followed by the next part.
# Abbreviations – A = miR-21 FLuc; B = B2AR arrestin; C = Nrf2 ARE act; D = A549 tox; E = Nrf2 inh
> Cc1ccccc1-n1c(SCC(=O)N/N=C/c2c(C)nn(-c3ccccc3)c2C)nc2ccccc2c1=O
  A = -2% | B = 0% | C = 2% | D = ? | E = ?
> Cc1ccc(-n2c(SCC(=O)N/N=C/c3c(C)nn(-c4ccccc4)c3C)nc3ccccc3c2=O)cc1
  A = -7% | B = 0% | C = 1% | D = 8.2µM* | E = ?
> Cc1nn(-c2ccccc2)c(C)c1/C=N/NC(=O)CSc1nc2ccccc2c(=O)n1-c1ccc(Br)cc1
  A = -7% | B = -1% | C = 0% | D = 18µM* | E = 26µM*
> Cc1ccc(S(=O)(=O)N(C)CCN(C)c2nc(-c3cccs3)nc3ccccc23)cc1
  A = · | B = · | C = · | D = 11% | E = -2%
> CCOC(=O)c1nnc2c(-c3ccc(Cl)cc3)c(C)nn2c1C
  A = -16% | B = · | C = 0% | D = -2% | E = -12%
> C[C@H](NC(=O)c1[nH]cnc1C(=O)Nc1ccc(Cl)cc1)c1ccccc1
  A = · | B = 0% | C = 0% | D = -10% | E = 18µM*
> C[C@H](NC(=O)c1[nH]cnc1C(=O)Nc1cccc(Cl)c1)c1ccccc1
  A = · | B = 0% | C = 10% | D = -14% | E = ?
> C[C@@H](NC(=O)c1[nH]cnc1C(=O)Nc1ccccc1)c1ccccc1
  A = · | B = -1% | C = -2% | D = -8% | E = 23µM*
> CC(C)(C)OC(=O)NCCCCCNC(=O)c1[nH]cnc1C(=O)Nc1ccc(Cl)cc1
  A = · | B = 0% | C = -4% | D = ? | E = 16µM*
> Cc1ccc(NC(=O)c2nc[nH]c2C(=O)N[C@@H](C)c2ccccc2)cc1
  A = 4% | B = 0% | C = -2% | D = -5% | E = ?
> C[C@@H](NC(=O)c1[nH]cnc1C(=O)Nc1ccc(Cl)cc1)c1ccccc1
  A = · | B = 0% | C = -6% | D = 18µM* | E = 5.8µM*
> CC1=C(C(=O)OC2CCCCCC2)C(c2c(Cl)cccc2Cl)CC(=O)N1 (stereo unspecified)
  A = 24% | B = · | C = -3% | D = -10% | E = 21µM*

# Remaining list, next part.
# Abbreviations – A = miR-21 FLuc; B = B2AR arrestin; C = Nrf2 ARE act; D = A549 tox; E = Nrf2 inh
> Cc1cc(OCC(=O)Nc2cc(S(=O)(=O)N3CCOCC3)ccc2N2CCCC2)ccc1C(C)C
  A = · | B = 0% | C = -1% | D = -21% | E = 16µM*
> CCOC(=O)C1=C(C)NC(SCC(N)=O)=C(C#N)C1c1cccs1 (stereo unspecified)
  A = 6% | B = -1% | C = -1% | D = 1% | E = -6%
> CCSC1=C(C#N)C(c2cccs2)C(C(=O)OC)=C(C)N1 (stereo unspecified)
  A = 1% | B = 0% | C = 3% | D = ? | E = 23µM*
> COc1cccc(NC(=O)Cn2c(=O)n(Cc3ccc(C(=O)NCc4ccc5c(c4)OCO5)cc3)c(=O)c3ccccc32)c1
  A = -2% | B = · | C = -1% | D = -1% | E = -19%
> C[C@@H]1CC[C@]2(C(=O)O)CC[C@]3(C)C(=CCC4[C@]56CC[C@@](O)(OC5)C(C)(C)C6CC[C@]43C)C2[C@H]1C (stereo partly specified)
  A = · | B = 0% | C = 0% | D = -25% | E = 15µM*
> C[C@H]1[C@H](C)CC[C@]2(C(=O)O)CC[C@]3(C)C(=CC[C@@H]4[C@@]5(C)C[C@@H](O)[C@H](O)C(C)(C)[C@@H]5CC[C@]43C)[C@H]12
  A = -1% | B = -1% | C = -1% | D = ? | E = ?
> O=C(Nc1nnc(C2CCCCC2)s1)C1CCN(C(=O)c2ccco2)CC1
  A = · | B = · | C = · | D = 2% | E = -3%
> COc1cccc(-c2csc(N3CCN(C(=S)Nc4ccccc4Cl)CC3)n2)c1
  A = -14% | B = 4% | C = 3% | D = -11% | E = ?
> COc1ccc(NC(=O)N2CCN(c3nc(-c4cccc(OC)c4)cs3)CC2)cc1
  A = 23% | B = 0% | C = 0% | D = -13% | E = ?
> COc1cccc(-c2csc(N3CCN(C(=S)Nc4cccc(Cl)c4)CC3)n2)c1
  A = 2% | B = 0% | C = 5% | D = -8% | E = 18µM*

# Sorted by the number under B2AR arrestin (highest first): 3 from the list above.
SMILES	miR-21 FLuc	B2AR arrestin	Nrf2 inh
COc1cccc(-c2csc(N3CCN(C(=S)Nc4ccccc4Cl)CC3)n2)c1	-14%	4%	?
Cc1cc(OCC(=O)Nc2cc(S(=O)(=O)N3CCOCC3)ccc2N2CCCC2)ccc1C(C)C	·	0%	16µM*
C[C@H]1[C@H](C)CC[C@]2(C(=O)O)CC[C@]3(C)C(=CC[C@@H]4[C@@]5(C)C[C@@H](O)[C@H](O)C(C)(C)[C@@H]5CC[C@]43C)[C@H]12	-1%	-1%	?

# The listing continues:
# Abbreviations – A = miR-21 FLuc; B = B2AR arrestin; C = Nrf2 ARE act; D = A549 tox; E = Nrf2 inh
> COc1cccc(-c2csc(N3CCN(C(=S)NCC(C)C)CC3)n2)c1
  A = 10% | B = -1% | C = 2% | D = -4% | E = 18µM*
> CCC(=O)N1CCN(c2nc(-c3ccc(Cl)cc3)cs2)CC1
  A = -14% | B = 0% | C = 3% | D = -7% | E = ?
> CC(C)CNC(=S)N1CCN(c2nc(-c3ccc(Cl)cc3)cs2)CC1
  A = 27% | B = 0% | C = 3% | D = -2% | E = 18µM*
> COc1cccc(-c2csc(N3CCN(C(=O)Nc4ccc(Cl)cc4)CC3)n2)c1
  A = -1% | B = 0% | C = -1% | D = ? | E = 15µM*
> O=C(NCCc1ccccc1)c1cnc2sc(N3CCCCCC3)nn2c1=O
  A = 1% | B = · | C = 1% | D = 0% | E = 5%
> COc1cccc(NC(=O)CSc2nc3ccc(NC(=O)c4cccs4)cc3s2)c1
  A = 21% | B = · | C = 9% | D = -21% | E = ?
> O=C1c2ccccc2C(=O)N1c1cccc2ncccc12
  A = · | B = · | C = · | D = -1% | E = -7%
> O=C1S/C(=C/c2ccc(N3CCOCC3)o2)C(=O)N1Cc1ccc(F)cc1
  A = -3% | B = 0% | C = 1% | D = 3% | E = 19%
> COc1ccc2cc(/C=C3\SC(=S)NC3=O)c(N3CCOCC3)nc2c1
  A = -5% | B = 0% | C = 2% | D = 18µM* | E = 21µM*
> COc1cccc(C=C2SC(=S)NC2=O)c1
  A = · | B = · | C = 3% | D = ? | E = 1%

# Additional results follow:
# Abbreviations – A = miR-21 FLuc; B = B2AR arrestin; C = Nrf2 ARE act; D = A549 tox; E = Nrf2 inh
> O=C1NC(=S)S/C1=C/c1ccc(N2CCOCC2)o1
  A = -18% | B = 0% | C = ? | D = 21µM* | E = 19%
> O=c1oc2c(F)cc(F)cc2cc1S(=O)(=O)c1ccc(F)cc1
  A = -2% | B = · | C = 10µM* | D = ? | E = -10%
> Cc1ccc2oc(=O)c(S(=O)(=O)c3ccc(F)cc3)cc2c1
  A = 4% | B = · | C = ? | D = 13% | E = -13%
> CC(=O)c1cccc(NC(=O)Cn2c(=O)c(CNc3ccc(C)cc3)cc3cc4c(cc32)OCCO4)c1
  A = 5% | B = · | C = 7% | D = 0% | E = 10%
> c1ccc2c(c1)CCN(c1nc3ccccc3n3cnnc13)C2
  A = 0% | B = 0% | C = 13µM* | D = -7% | E = 15%
> CC1CCN2c3ccccc3CC3(C(=O)OC(C)(C)OC3=O)C2C1 (stereo unspecified)
  A = · | B = · | C = · | D = 0% | E = -8%
> NS(=O)(=O)c1ccc(N=Nc2c(-c3ccccc3)[nH]n(-c3nc(-c4ccccc4)cs3)c2=O)cc1
  A = -3% | B = 0% | C = 2% | D = ? | E = 4.6µM*

# Bioassay records (PubChem)
